Laboratory results as given in patent EP3650046A1, “MESENCHYMAL STEM CELL BASED TARGETED ACTIVE INGREDIENT DELIVERY SYSTEM” (Cellis AG, priority 2018, dated 2020).

System: Human umbilical Mesenchymal Stem Cells (MSC)
Experiment: Loading of UC-MSC in suspension with fluorescently labelled iron-binding protein complexes, flow cytometry
Format: cell-based
Settings: MSC at passage five loaded with 0.6 mg/ml
Protocol: Umbilical Cord Mesenchymal Stem cells (UC-MSC) were cultured in DMEM 1000, 1:100 penicillin/streptomycin, 20% FBS, 8 ng/ml bFGF. Media was changed every 2 days. Experiments were carried out on UC-MSCs at passage 5.
Ferritin and haemoglobin complexes were produced as described in WO 2016/207257 (see in particular Examples 5 and 6).
Human UC-MSCs were loaded in suspension with fluorescently labelled haemoglobin-Alexa488, ferritn-Alexa488 or ferritin loaded with anticancer drug doxorubicin (ferritin-doxorubicin) as follows: UC-MSCs were detached from culture dish with 0,25% Trypsin-EDTA then cells were mixed with 0,6 mg/ml of haemoglobin-Alexa488, ferritn-Alexa488 and ferritn-doxorubicin in PBS to final cell density 10^6 per ml. Next cells were incubated for 1 hour at 37 °C, 5% CO2 and washed once in PBS afterwards. Cells were immediately used to set up co-culture with cancer cells.

Q: “Ferritin-Alexa488: fluorescently labelled ferritin-Alexa488, produced as described in WO 2016/207257” was tested. Which “efficacy of loading of MSC” value did it give?
A: ≥ 95%

Q: And the “mean fluorescence intensity in loaded MSC cells versus control group” value (fold higher than control group)?
A: 3 times
